ChEMBL document CHEMBL5113403

The chains behind the UniProt entries cited, without tags or fusion partners.
UniProt P05177, whole entry: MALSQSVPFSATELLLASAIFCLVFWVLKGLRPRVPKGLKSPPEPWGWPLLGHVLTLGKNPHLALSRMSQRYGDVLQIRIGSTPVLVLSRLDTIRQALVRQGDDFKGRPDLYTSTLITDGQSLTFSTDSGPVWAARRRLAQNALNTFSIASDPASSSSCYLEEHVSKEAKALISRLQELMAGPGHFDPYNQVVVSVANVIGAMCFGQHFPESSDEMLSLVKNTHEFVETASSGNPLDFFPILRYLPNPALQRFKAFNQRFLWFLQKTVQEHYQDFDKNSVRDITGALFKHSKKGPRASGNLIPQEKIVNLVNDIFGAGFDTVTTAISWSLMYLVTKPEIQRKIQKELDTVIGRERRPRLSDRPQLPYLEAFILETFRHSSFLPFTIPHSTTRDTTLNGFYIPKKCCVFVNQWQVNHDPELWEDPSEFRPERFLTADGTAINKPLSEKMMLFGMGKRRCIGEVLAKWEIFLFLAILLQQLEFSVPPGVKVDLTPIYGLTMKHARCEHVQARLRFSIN

Molecular target: CYP1A2 (Homo sapiens, UniProt P05177)
Test: Inhibition of CYP1A2 in human liver microsomes at 10 uM preincubated for 10 mins followed by addition of NADPH-regenerating system and measured after 15 mins by LC-MS/MS analysis relative to control
Type: ADME, Microsome
Conditions: time 25 min

**Q.** How did the inhibition at 0.25 h, 10 µM turn out when O=c1cc(-c2ccccc2)oc2c1ccc1ccccc12 [ALPHA-NAPHTHOFLAVONE] was run?
**A.** 89.2%
